In PubChem BioAssay AID2101 (National Center for Advancing Translational Sciences (NCATS), 2009):
The entries are a selection whose mix differs from that of the whole data set. Some tests of the compounds listed are not included; inactive here does not mean inactive elsewhere. Inconclusive results are not listed. Active and inactive are the calls of the source. The call rests on the fitted dose curve; in most records, active means well fitted inhibition curve with a large enough effect; inconclusive means small, poorly fitted or top-dose-only effect, or effect the other way, or another doubt; inactive means no such curve, though single readings can be large or run the other way.
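Further: 0% = full enzyme activity and -100% = no enzyme basal.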

What follows are compounds tested against Lysosomal acid glucosylceramidase (Homo sapiens) (UniProt P04062) (assay: qHTS Assay for Inhibitors and Activators of N370S glucocerebrosidase as a Potential Chaperone Treatment of Gaucher Disease). Settings: N370S GC spleen homogenate, 4MU-glucoside fluorescence; at 59.4 µM (top of the series) unless noted.
Text: NIH Chemical Genomics Center [NCGC]
NIH Molecular Libraries Probe Production Centers Network [MLPCN]
Assay Submitter (PI): Wei Zheng
Glucocerebrosidase (GC) catalyzes the hydrolysis of beta-glucocerebroside to glucose and ceramide in lysosomes. Mutations in the glucocerebrosidase gene result in Gaucher disease, an autosomal recessive lysosomal storage disorder. Many of the mutations encountered in patients with Gaucher disease are missense alterations that may cause misfolding, decreased stability and/or mistrafficking of this lysosomal protein. […] These inhibitors include iminosugar analogs and three non-iminosugar inhibitors identified from a previous HTS of 62,000 compounds with the wild type recombinant enzyme. However, the enhancement of enzyme activity by the chaperone action of an enzyme inhibitor must be balanced against the direct inhibition of the enzyme. An enzyme activator could also function as a chaperone by binding to the enzyme and helping to correct its misfolding and mistrafficking. While activators for GC have not yet been identified, they may have better therapeutic potential than inhibitors. Therefore the discovery and development of chemical activators may provide a new strategy for the chaperone therapy.
We have optimized a new assay using N370S mutant GC derived from the spleen of a Gaucher patient. […] In addition, the MLPCN compound library has expanded, which increases the chance of finding new and better probes.
NCGC Assay Protocol Summary:
This is a fluorogenic enzyme assay with 4-methylumbelliferyl-beta-D-glucopyranoside as the substrate and N370S glucocerebrosidase from human spleen homogenate as the enzyme preparation. Upon the hydrolysis of this fluorogenic substrate, the resulting product, […] which can be detected by a standard fluorescence plate reader. Data were normalized to the controls for basal activity (without enzyme) and 100% activity (with enzyme). The AC50 values were determined from concentration-response data modeled with the standard Hill equation.
Assay buffer: 50 mM citric acid (titrated with potassium phosphate to pH 5.0), 100 mM potassium chloride, 10 mM sodium chloride, 1 mM magnesium chloride, 0.01% Tween-20.
1536-well assay protocol:
(1) Add 2 ul/well of spleen homogenate (27 ug final)
(2) Add 23 nL compounds in DMSO solution. The final titration was 0.5 nM to 58 uM.
(3) Add 2 ul of substrate (1 mM final)
(4) Incubate at 37C for 40 min.
(5) Add 2 ul stop solution (1M NaOH and 1M Glycine mixture, pH 10)
(6) Detect the assay plate in a ViewLux plate reader (PerkinElmer) with Ex=365 nm and Em=440nm.
Keywords: Glucocerebrosidase, beta-glucosidase, Gaucher Disease, pharmacological chaperone, chaperone therapy, high throughput screening, glucocerebrosidase inhibitor, MLSMR, MLSCN, NIH Roadmap, qHTS and NCGC
`CC(C)N1C(=O)CC2(CCN(CCOC(=O)C(O)(c3ccccc3)c3ccccc3)CC2)C1=O` was tested, and the activity change, negative = inhibition was inactive: 5.6%. In the case of `CCN(CC)CC(C)C(C)OC(=O)C(O)(c1ccccc1)c1ccccc1` (stereo not drawn), the activity change, negative = inhibition is reported as inactive: -4.37%. `COc1cc(SC)ccc1C(=O)NCC1(N(C)C)CCCCC1` was tested, and the activity change, negative = inhibition was inactive: 2.75%. With `Cc1ccc(C(=O)NCC2(N3CCCCC3)CCCCC2)cc1` the activity change, negative = inhibition was inactive: -28.5%. With `O=C(NCC1(N2CCCCC2)CCCCC1)c1cc([N+](=O)[O-])ccc1Cl` the activity change, negative = inhibition was inactive: 2.02%. `CN1[C@@H]2CC[C@H]1CC(OC(=O)C(O)(c1ccccc1)c1ccccc1)C2` (stereo partly drawn) was tested, and the activity change, negative = inhibition was inactive: -5.59%. With `C=CCN1CCN(CCOC(=O)C(O)(c2ccccc2)c2ccccc2)CC1` the activity change, negative = inhibition was inactive: 28.7%. With `O=C(NCC1(N2CCCCC2)CCCCC1)c1cc(F)c(F)cc1Cl` the activity change, negative = inhibition was inactive: -15.1%. In the case of `Cc1cc(C(=O)NCC2(N3CCCCC3)CCCCC2)ccc1[N+](=O)[O-]`, the activity change, negative = inhibition is reported as inactive: -5.25%. For `CCN1CCCC(OC(=O)C2(O)c3ccccc3C=Cc3ccccc32)C1` (stereo not drawn), the activity change, negative = inhibition was inactive: -2.14%. In the case of `O=C(NCC1(N2CCCCC2)CCCCC1)c1cccc(Br)c1`, the activity change, negative = inhibition is reported as inactive: -17.2%. With `COc1ccc(C(=O)NCC2(N(C)C)CCCCC2)cc1` the activity change, negative = inhibition was inactive: 1.82%. `Cc1ccccc1C(=O)NCC1(N2CCCCC2)CCCCC1` was tested, and the activity change, negative = inhibition was inactive: -7.03%. For `CN(C)C1CCCC1OC(=O)C(O)(c1ccccc1)c1ccccc1` (stereo not drawn), the activity change, negative = inhibition was inactive: 4.27%. `CN(C)c1ccc(C(=O)NCC2(N(C)C)CCCCC2)cc1` was tested, and the activity change, negative = inhibition was inactive: -4.7%. For `COc1cccc(C(=O)NCC2(N3CCCCC3)CCCCC2)c1`, the activity change, negative = inhibition was inactive: 4.35%. In the case of `COc1ccc(Cl)cc1C(=O)NCC1(N(C)C)CCCCC1`, the activity change, negative = inhibition is reported as inactive: -3.64%. In the case of `O=C(NCC1(N2CCCCC2)CCCCC1)c1cccc(Cl)c1`, the activity change, negative = inhibition is reported as inactive: -4.13%. For `CN(C)C1(CNC(=O)c2ccc(Br)cc2)CCCCC1`, the activity change, negative = inhibition was inactive: 0.425%. In the case of `COc1cc(C(=O)NCC2(N(C)C)CCCCC2)c([N+](=O)[O-])cc1OC`, the activity change, negative = inhibition is reported as inactive: -10.9%. For `COc1ccc(Br)c(C(=O)NCC2(N3CCCCC3)CCCCC2)c1`, the activity change, negative = inhibition was inactive: -9.67%. In the case of `CN(C)c1cccc(C(=O)NCC2(N(C)C)CCCCC2)c1`, the activity change, negative = inhibition is reported as inactive: -6.82% [at 2.35 µM]. `O=C(OC1CN2CCC1CC2)C(CO)(c1ccccc1)c1ccccc1` (stereo not drawn) was tested, and the activity change, negative = inhibition was inactive: -7.11%.
